Literature values as cited in article PMC12559310, “Tumor-targeted top1 inhibitor delivery with optimized parp inhibition in advanced solid tumors: a phase i trial of gapped scheduling” (Nature Communications, 2025).

Test system: NSCLC
Settings: CRLX101 plus BSC group (12 subjects); cited from earlier work

Poly-CD-PEG-Camptothecin [CRLX101]
TEAE asthenia: 12%
